## Apparent affinities of Ab-14 variants for a coronavirus HR2 peptide

All variants were tested on one target, the spike HR2 peptide PDVDLGDISGINAS (SARS-CoV-2).

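Phage display of a naive human antibody library on the peptide gave the parent. Designed CDR sequences, proposed from the first random library and measured here. Several design methods are mixed in this list. Affinity was read by AlphaSeq, a pooled yeast mating assay with surface-displayed partners. Pairs that bind mate more often; barcode pairs of the diploids are counted by sequencing. The ratio of observed to expected reads was calibrated, replicate by replicate, on BCL2-family standards whose Kd was known from biolayer interferometry. Each pool was mated in six replicate cultures.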

Each scFv is VH, a 15-residue (Gly4Ser)3 linker, VL, as in the parent Ab-14, and differs from it in the CDRs of the light chain only.
VH: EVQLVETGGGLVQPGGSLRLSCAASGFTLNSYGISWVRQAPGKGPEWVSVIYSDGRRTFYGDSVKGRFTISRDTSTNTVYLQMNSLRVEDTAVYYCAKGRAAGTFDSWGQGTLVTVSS
VL: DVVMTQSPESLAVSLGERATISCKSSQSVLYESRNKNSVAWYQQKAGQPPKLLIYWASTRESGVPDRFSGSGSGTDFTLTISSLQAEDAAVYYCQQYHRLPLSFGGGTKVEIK

Each variant is given by its three light chain CDRs, as the data file delimits them; those of the parent are KSSQSVLYESRNKNSVA, WASTRES, QQYHRLPLS. This list holds designs with more than six substitutions. Numbers give log10(Kd / nM), so 0 is 1 nM and 3 is 1 µM. Smaller is tighter. The mean shown is taken over the replicates in which the pair was detected. An entry "nd" has no value in the source: the pair was not observed among the diploids in any replicate. This suggests poor binding but is not conclusive. Values of this round are not directly comparable with the first-round values of the same sequences. As a blank, each scFv also met three strains without target: over all light chain designs, 4% of these pairings were detected, typically at 2.64 and seldom below 1.59. The authors averaged sequences with at least three values out of six and counted those with two or fewer as poor binders.

Variant QLDQAYRVGALWTDSIA | HASMRVQ | QCYNRLPLM gave 1.66 (3 of 6 replicates). Variant MISQLMNMGQFAINSVA | QASIRNQ | QQYDRLPLI gave 0.54 (1 of 6 replicates). For SLMDNIWVEDTYRKAIA | DRNVRAK | QQYHRLPLS, the assay gave 0.62 (6 of 6 replicates). Variant NIDQLRSYQDGRERAIA | DASIRQD | QYYNRLPLV showed 0.36 (6 of 6 replicates). With KLQQSRLYEDRNANNVA | NASQRES | QQYHRLPLS the result was -0.42 (6 of 6 replicates). For KISGSYLGLSRNWNAVA | NASTREQ | QQYHRLPLS, the assay gave -0.01 (6 of 6 replicates). Variant TISQSTYWESRNKNSVA | QTTTREE | QDYDRLPLS gave 2.31 (6 of 6 replicates).

For NLSYLQGEPTNSVNNVA | QTSKRAH | QQYQRLPLC, the assay gave 0.59 (6 of 6 replicates). For KLQQSQEYESRNKNSVA | HASTRCD | QQYHRLPLS, the assay gave 0.05 (6 of 6 replicates). For KITQLVMETSRNKNNVA | EVSTLPD | QQYHRLPLS, the assay gave -0.06 (6 of 6 replicates). With MISDLTMYGSRNVYSVA | DLSTRGS | QQYHRLPLS the result was 0.30 (6 of 6 replicates). Variant TISASTYWESRNKNSVA | QTSTREE | QDYDRLPLS gave 1.07 (6 of 6 replicates). With KLMGNKVHGATRQYNIA | ETTLVGQ | QQYFHLPFI the result was 2.51 (2 of 6 replicates). Variant AVSIEHMENTAIWNAIA | DTSLRNH | QQYYHLPLS gave 0.80 (5 of 6 replicates).

For KLSISHQVEHINKSNVA | EMVTRES | QQYDRLPLS, the assay gave 2.45 (3 of 6 replicates). Variant MVNQHDEGFKGVKDNIA | NAATREG | QHYGRLPLS gave 0.86 (6 of 6 replicates). With MVSNLMLWGLHTKNSIA | EAQTRIN | QQYDRLPLF the result was 1.32 (6 of 6 replicates). With KLSQLFYKESRQKNNVA | EMTTRGS | QQYDRLPLS the result was 0.67 (6 of 6 replicates). Variant KVSEFMRGLMKMKDSIA | DNETRGA | QQYDRLPLS showed 1.39 (1 of 6 replicates). Variant HITSNMFGTGGVASNVA | ETNTLMV | QQYSKLPLM showed 0.27 (6 of 6 replicates). For KLESRQYHFGADHQSIA | DAHISMN | QQYMHLPFT, the assay gave 0.76 (6 of 6 replicates).

Variant MISQLYNMGSFAINSVA | QGQTRNE | QQYDRLPLM gave 2.19 (5 of 6 replicates). For KISQMSTIESIMHNSVA | QTSTREK | QQYDRLPLS, the assay gave 0.69 (6 of 6 replicates). Variant KLWMIFFEGQQELSAVA | NAGTLVQ | QQYNVLPLS showed nd (0 of 6 replicates). Variant KFDFQMPELNYQDNSVA | GMTVSIE | QHYFRLPLT showed 2.19 (1 of 6 replicates). For KVSMLHWYWSRNKNSVA | EASTREQ | QQYHRLPLS, the assay gave 0.95 (6 of 6 replicates). Variant IISELYNQAMGMRNNVA | NNATRED | QQYDRLPLS showed 2.30 (4 of 6 replicates). Variant KSSGQVCYGDRNKNSVA | NASTREQ | QQYHRLPLS showed 0.68 (6 of 6 replicates).

With MMSQVRGSGTRQRNNVA | QTSTREP | QQYDRLPLM the result was 0.98 (6 of 6 replicates). Variant MVSQLMLWGLHAKNSIA | EAQTRIN | QQYDRLPLE showed 1.20 (6 of 6 replicates). Variant TLYGLTNSMSKNKDNVA | EMSTREA | QQYDRLPLI showed 1.41 (6 of 6 replicates).

Data: MIT Lincoln Laboratory AlphaSeq set, Li et al. 2023, doi:10.1038/s41467-023-39022-2, as distributed in FLAb.